Experimental data from ChEMBL document CHEMBL3407483, “Novel 3-nitrotriazole-based amides and carbinols as bifunctional antichagasic agents” (J Med Chem, 2015).

Sequences of proteins named here, by UniProt entry; tags and fusion partners are left off. A change or cut given only in a name is not applied to a line headed by its entry.
UniProt Q7Z1V1: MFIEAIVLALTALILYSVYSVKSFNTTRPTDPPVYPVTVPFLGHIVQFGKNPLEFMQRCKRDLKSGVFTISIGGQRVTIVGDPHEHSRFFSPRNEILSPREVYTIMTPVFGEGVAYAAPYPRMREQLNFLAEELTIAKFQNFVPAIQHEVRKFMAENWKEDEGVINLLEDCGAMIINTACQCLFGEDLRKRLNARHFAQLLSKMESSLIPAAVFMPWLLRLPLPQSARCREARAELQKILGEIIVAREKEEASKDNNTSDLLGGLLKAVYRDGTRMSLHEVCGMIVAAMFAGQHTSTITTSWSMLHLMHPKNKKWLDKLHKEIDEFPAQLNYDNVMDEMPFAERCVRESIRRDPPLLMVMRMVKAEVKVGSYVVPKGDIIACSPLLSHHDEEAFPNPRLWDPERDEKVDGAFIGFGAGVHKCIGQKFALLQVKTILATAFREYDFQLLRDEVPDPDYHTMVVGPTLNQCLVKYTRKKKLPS

Experiments:
[1] = molecular target: Sterol 14-alpha demethylase (Trypanosoma cruzi (strain CL Brener)) (UniProt Q7Z1V1); assay: Inhibition of recombinant full-length Trypanosoma cruzi CYP51 assessed as molar ratio of inhibitor to enzyme which causes 2 fold decrease in enzyme activity in 1 hr by HPLC analysis
[2] = molecular target: Sterol 14-alpha demethylase (Trypanosoma cruzi (strain CL Brener)) (UniProt Q7Z1V1); assay: Inhibition of recombinant full-length Trypanosoma cruzi CYP51 assessed as molar ratio of inhibitor to enzyme which causes 2 fold decrease in enzyme activity in 5 mins by HPLC analysis
[3] = Selectivity index, ratio of IC50 for rat L6 cells to IC50 for amastigote stage of Trypanosoma cruzi Tulahuen C4 infected in rat L6 cells; format: toxicity, cell-based; conditions: read-out: Ratio IC50
[4] = Selectivity index, ratio of IC50 for rat L6 cells to IC50 for trypomastigote stage of Trypanosoma brucei rhodesiense STIB 900; format: toxicity, cell-based; conditions: read-out: Ratio IC50

Compound | Ratio [1] | Ratio [2] | selectivity ratio [3] | selectivity ratio [4]
O=[N+]([O-])c1ncn(CC(O)(Cn2cncn2)c2ccc(-c3ccccc3)cc2)n1 (stereo not drawn) | 3 | < 1 |  | 
CC1(c2ccc(-n3ccnc3)cc2)CO1 (stereo not drawn) |  |  | 1.48 | 3.64
N#Cc1ccc(-c2ccc(NC(=O)Cn3cnc([N+](=O)[O-])n3)cc2)cc1 | 36 | 4 |  | 
O=[N+]([O-])c1ncn(CC(O)(Cn2cncn2)c2ccc(F)cc2F)n1 (stereo not drawn) | 32 | 5 |  | 
